Experimental data reported in patent US4134989A, “Guaiacol p-isobutyl hydratropate” (Aziende Chimiche Riunite Angelini Francesco A.C.R.A.F. …, priority 1976, dated 1979).

Test system: rats
Settings: by gavage

## COc1ccccc1OC(=O)C(C)c1ccc(CC(C)C)cc1 (stereo not shown) [GIH, guaiacol p-isobutyl hydratropate]
  acute toxicity compared with ibuprofen: definitely less toxic than ibuprofen
